{"source": "patent US20100081624A1", "about": "(CONSEJO SUPERIOR DE INVESTIGACIONES CIENTFICAS, published 2010)", "molecular_target": "human CN, expressed in bacteria and purified (CnA in tandem with CnB, GST construct) (human, UniProt Q08209 1-521; P63098 1-170)", "experiment": "cell-based or functional assay", "data": [{"binder": "DQYLAVPQHPYQWAK", "note": "[LxVPc1 peptide (synthetic peptide with the LxVP sequence of NFATc1)]", "values": [{"measurement": "EC50 of the increase of CN phosphatase activity on pNPP", "result": "~6.5", "unit": "mM"}]}]}
